Source: patent US20130183237A1 (priority 2007, published 2013)
Like-named read-outs stand apart in the source and are kept apart here.

Molecular target: human plasma derived thrombin (Homo sapiens, UniProt P00734)

`CC[C@H](C)[C@H](NC(=O)[C@H](CCC(=O)O)NC(=O)[C@H](CCC(=O)O)NC(=O)[C@H](Cc1ccccc1)NC(=O)[C@H](CC(=O)O)NC(=O)[C@H](Cc1ccccc1)NC(=O)[C@@H]1CCCN1C(=O)[C@@H]1CCCN1C(=O)[C@H](C)NC(=O)[C@@H](NC(=O)[C@H](CCCCN)NC(=O)[C@H](Cc1c[nH]cn1)NC(=O)[C@H](CCSC)NC(=O)[C@H](CCCCN)NC(=O)[C@@H]1CCCN1C(=O)[C@@H](N)CCC(=O)O)[C@@H](C)O)C(=O)N1CCC[C@H]1C(=O)N[C@@H](CCC(=O)O)C(=O)N[C@@H](CCC(=O)O)C(=O)N[C@@H](Cc1ccc(O)cc1)C(=O)N[C@@H](CC(C)C)C(=O)N[C@@H](CC(=O)O)C(=O)N[C@@H](CC(=O)O)C(=O)N[C@@H](CCC(=O)O)C(=O)N[C@@H](CO)C(=O)O` [EP25A22E] showed a Ki of 0.311 ± 0.07 nM, an IC50 (pre-incubation time 0 min) of 124 nM and an IC50 (pre-incubation time 20 min) of 13.5 ± 2.08 nM. For the same molecule, the IC50 (pre-incubation time 30 min) was 13.6 nM.
